The subject of one experiment is trypsin. The following applies: trypsin used for the HDAC assay.
In a further experiment the test system is MMP-2/MMP-9. The following applies: 13a 50 μM and 10 μM, Figure S4.
The test system of another experiment is primary wt-p53 AML cells. In words: cells. To be noted: Homo sapiens, read-out: EC50 in primary wt-p53 AML cells.
Another experiment concerns RS4;11 cells. In words: Western blot analysis. The experiment is classed as cell-based. The following applies: wt-p53 wt-FLT3 RS4;11, 24 h; 13a 200 nM, panobinostat 100 nM, vorinostat 5000 nM. A general note: Immunoblotting shows a protein as a band on a membrane.
For another experiment, the system named is MV4–11 cells. The experiment can be described thus: Western blot analysis. The experiment is classed as cell-based.

Structures are written as SMILES.

Consider `CCCNNC(=O)/C=C/c1ccc(CNCCc2c(C)[nH]c3ccccc23)cc1.O=C(O)C(F)(F)F` [Compound 13a, (E)-2-(2-methyl-1H-indol-3-yl)-N-(4-(3-oxo-3-(2-propylhydrazinyl)prop-1-en-1-yl)benzyl)ethanaminium 2,2,2-trifluoroacetate], for which, in the experiment with trypsin, the inhibition of trypsin result was “does not show any inhibition”. The “inhibition of MMP” value in the experiment with MMP-2/MMP-9 is reported as “does not show any inhibition”. In the experiment on primary wt-p53 AML cells, the EC50 (commonly the midpoint of the concentration-response curve) is < 1000 nM.
As to `O=C(CCCCCCC(=O)Nc1ccccc1)NO` [SAHA, vorinostat], the “cleavage of pro-caspase3” value in the experiment with RS4;11 cells is “observed”. Also, the “increase in Hsp70 levels” value in the experiment with MV4–11 cells (24 h, Figures 5A and C (MV4–11 and RS4;11)) is given as “observed”. Moreover, the pro-caspase3 cleavage entry in the experiment with MV4–11 cells (wt-p53 FLT3-ITD MV4–11, 24 h, Figure 5A) was “observed”.

Values taken from paper PMC7684764 (Journal of medicinal chemistry, 2020).
